The assay concerns the target α2 (non-selective). The assay is described as follows: Radioligand binding, Cerep 802-1b.

Structures are written as SMILES.

`COC(=O)[C@@H]1[C@H]2C[C@H]3c4[nH]c5ccccc5c4CCN3C[C@@H]2CC[C@@H]1O` [yohimbine, reference compound] gave an IC50 of 74 nM.

Source of the values: patent US9422289B2, “Use of pteridine derivatives for the treatment of increased intracranial pressure, secondary ischemia, and disorders associated with an increased level of cytotoxic reactive oxygen species” (VASOPHARM GMBH, priority 2003, dated 2016).
